# Source: US5614198A, “Bowman-Birk Inhibitor compositions for treatment of inflammatory disease” (The Trustees of the University of Pennsylvania, priority 1995, dated 1997)
# System: proteolytic activity in UC lesions
# Assay: gelatin zymogram protease assay of UC lesion homogenates from DNBS/ethanol rat colon
# Conditions: FIG. 2, DFP 1 mM, BBI 1.25 μM, EDTA 10 mM
smiles,measurement,value
O=C(O)CN(CCN(CC(=O)O)CC(=O)O)CC(=O)O,activity of UC lesion column with no protease inhibitor relative to inhibitor column (scanning densitometry),1.6 times
